Hits are enriched below; roughly 4.2% of the tested compounds scored in any of these assays.
ALR inh: inhibitors of human ALR sulfhydryl oxidase, primary screen, biochemical, H2O2 detection, HRP-luminol luminescence, single point; FAD-linked sulfhydryl oxidase ALR (Homo sapiens), P55789; purified ALR, DTT oxidation; inhibition, % (concentration not given with the values); AID 485317, 2010; actives 3.8% (n = 290,000);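 active means mean and each replicate at 75% or more; inconclusive means only one of the two met; inactive means neither met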;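 further: stock transfer was 7.5 nL into about 7.5 µL; 0% = neutral wells and 100% = wells with inactivated enzyme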
Yeast UUG start: modulators of start codon recognition fidelity in yeast; AID 602363; activity score, % at 18.7 µM; S. cerevisiae UUG-firefly luciferase reporter, luminescence/redox ratio; 0.13% of 350,000 active;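 active = replicate mean at a twofold rise or more, about +100% in these data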;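 note: firefly luciferase made from a UUG start codon reports start codon fidelity; reporter light over untreated wells divided by growth signal over untreated wells; some hits fall short of that in this replicate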
NALP1 inh: blocks the NALP1 inflammasome reconstituted in yeast. S. cerevisiae NALP1/ASC/caspase-1 growth, X-gal OD620, 72 h. inhibition, % at 10 µM. 280,000 tested, 0.61% active. AID 2071; in the data active = inhibition mostly above about 24%, no sharp cut-off; inactive = mostly below about 32%
MC4R antagonist: blocks human MC4R cAMP signaling | MC4R-expressing cells, MTII-stimulated cAMP, LANCE TR-FRET | inhibition, % at 6.5 µM | 360,000 tested, 0.48% active | AID 540295;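 active = inhibition above its plate's cutoff, the mean of tested wells on that plate plus 3 SD, cut at about 29% in these data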;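 note: 0% = Melanotan II alone and 100% = Melanotan II plus saturating MCL0020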
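Assay system: U2OS-MC4R stable cell line; Also added: Melanotan II; Technique: Eu-cAMP/anti-cAMP TR-FRET, emission 671 nm; Times: 30-min compound, 1-h challenge, 1-h detection, room temperature.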
MC4R barr agon: human MC4R agonism via beta-arrestin | U2OS MC4R beta-arrestin complementation, luminescence; percent of melanotan II response, DMSO zero | activation, % at 8.9 µM | 360,000 tested, 0.98% active | P32245 | AID 540308;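 active = activation above a per-plate cutoff, the mean activation of sample wells on that plate plus 3 SD, cut at about 8% in these data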
HDAC3 inh: human HDAC3 inhibition; O15379; recombinant HDAC3, fluorogenic peptide/trypsin coupled, fluorescence; inhibition, % at 8.3 µM; 320,000 tested, 0.15% active; in the data active = inhibition above about 26%, passing the limit was not always enough; inconclusive = no clear call, values can overlap the other calls
* hit, by the source's call.

Screening CN1C(=O)c2cc(NC(=O)C3CCOCC3)ccc2OC[C@H]2O[C@@H](CC(=O)NC3CCCC3)CC[C@H]21 returned Yeast UUG start 7.5.
`C[C@@H]1CN([C@@H](C)CO)C(=O)c2cc(NC(=O)c3ccccc3)ccc2O[C@@H](C)CCCCO[C@H]1CN(C)S(=O)(=O)c1cccs1` gave Yeast UUG start -3.2.
`O=C(c1cccc(F)c1)N1C[C@H]2[C@@H](c3ccccc31)[C@@H](CO)N2C(=O)c1cccc(F)c1` gave Yeast UUG start -5.6.
Screening COCC(=O)NCCSc1c(C)[nH]c2ccccc12 returned ALR inh 86.1*, Yeast UUG start -7.0, NALP1 inh 16.2, MC4R antagonist 2.2, MC4R barr agon 2.5 and HDAC3 inh 3.6.
Screening O=C(CCCn1c(=S)[nH]c2ccccc2c1=O)NC1CCCCC1 returned ALR inh 79.3*, Yeast UUG start -10.1, NALP1 inh 15.5, MC4R antagonist 7.2, MC4R barr agon -0.6 and HDAC3 inh 3.1.
CC1CCN(CCCn2c(=S)[nH]c3c(sc4ccccc43)c2=O)CC1 was read as ALR inh 25.4, Yeast UUG start -16.3, NALP1 inh -16.4, MC4R antagonist 11.9, MC4R barr agon -2.9 and HDAC3 inh 6.7.
`O=C(C1CCC(Cn2c(=S)[nH]c3ccccc3c2=O)CC1)N1CCOCC1` (stereo unspecified) gave ALR inh 82.7*, Yeast UUG start -22.9, NALP1 inh -3.7, MC4R antagonist 2.8, MC4R barr agon -0.1 and HDAC3 inh 4.1.
For O=c1c2sc3ccccc3c2[nH]c(=S)n1CCN1CCOCC1 the results were ALR inh 95.9*, NALP1 inh -0.9, MC4R antagonist -4.3, MC4R barr agon -1.9 and HDAC3 inh 5.6.
For Cc1noc(C)c1NC(=O)N(C)C[C@@H]1OCCCC[C@H](C)Oc2ccc(N(C)C)cc2C(=O)N([C@H](C)CO)C[C@H]1C the results were Yeast UUG start 16.4.
CC1CC(C)CN(C(=O)CCCn2c(=S)[nH]c3ccccc3c2=O)C1 (stereo unspecified) was read as ALR inh 96.2*, Yeast UUG start 8.7, NALP1 inh -1.2, MC4R antagonist -2.1, MC4R barr agon -0.5 and HDAC3 inh -6.0.
For O=C(CCn1c(=S)[nH]c2ccccc2c1=O)N1CCOCC1 the results were ALR inh 85.4*, Yeast UUG start -14.8, MC4R antagonist 17.6, MC4R barr agon 0.0 and HDAC3 inh -0.3.
Screening O=C(CCCn1c(=S)[nH]c2ccccc2c1=O)N1CCCCC1 returned ALR inh 74.6, Yeast UUG start -7.7, NALP1 inh 27.1, MC4R antagonist 2.1, MC4R barr agon -1.3 and HDAC3 inh -5.6.
Screening Cc1[nH]c2ccccc2c1SCC(=O)NC1CCCCC1 returned ALR inh 80.1*, NALP1 inh 4.9, MC4R antagonist 20.1, MC4R barr agon -0.4 and HDAC3 inh 2.8.
For CN1CCN(C(=O)CCn2c(=S)[nH]c3ccccc3c2=O)CC1 the results were Yeast UUG start 3.3, MC4R antagonist 4.6 and MC4R barr agon 0.7.
Screening COCC(=O)c1[nH]c2ccccc2c1C returned ALR inh 91.5*, Yeast UUG start -18.0, NALP1 inh 15.6, MC4R antagonist -1.5, MC4R barr agon 0.2 and HDAC3 inh 7.1.
For CCCS(=O)(=O)Nc1c(C(=O)OC)[nH]c2ccccc12 the results were ALR inh 16.4, Yeast UUG start 0.3, NALP1 inh 25.6, MC4R antagonist 1.0, MC4R barr agon -0.9 and HDAC3 inh 11.1.
`C[C@H](CO)N1C[C@H](C)[C@@H](CN(C)C(=O)CC2CC2)Oc2cc(C#CC3CC3)ccc2S1(=O)=O` gave Yeast UUG start 21.7.
Screening C[C@@H]1CN([C@H](C)CO)C(=O)Cc2cc(NC(=O)Nc3cccc4ccccc34)ccc2O[C@H]1CN(C)Cc1ccc2c(c1)OCO2 returned Yeast UUG start 11.7.
Screening CN1CCN(C(=O)C[C@H]2C[C@@H]3c4cc(NC(=O)C5CCOCC5)ccc4O[C@@H]3[C@@H](CO)O2)CC1 returned Yeast UUG start -5.0.
Screening COc1ccccc1CNC(=O)C[C@@H]1C[C@@H]2c3cc(NC(=O)C4CCC4)ccc3O[C@@H]2[C@@H](CO)O1 returned Yeast UUG start 43.0.
For COCC#Cc1ccc2c(c1)O[C@H](CN(C)S(=O)(=O)c1cccc(F)c1)[C@@H](C)CN([C@H](C)CO)S2(=O)=O the results were Yeast UUG start -0.1.
`O=c1c2ccccc2[nH]c(=S)n1CCCN1CCOCC1` gave ALR inh 86.8*, Yeast UUG start -14.4, NALP1 inh 10.3, MC4R antagonist -3.0, MC4R barr agon -2.3 and HDAC3 inh inconclusive.
O=C(Nc1c(C(=O)O)[nH]c2ccccc12)NC1CCCCC1 was read as ALR inh 98.5*, Yeast UUG start 10.3, NALP1 inh -7.5, MC4R antagonist -1.7, MC4R barr agon -1.3 and HDAC3 inh -44.2.
Screening O=c1c2ccc(Cl)cc2[nH]c(=S)n1CCCN1CCOCC1 returned ALR inh 94.7*, Yeast UUG start -3.9, NALP1 inh -33.6, MC4R antagonist 5.9, MC4R barr agon -0.7 and HDAC3 inh 3.0.
COC(=O)C(F)(F)Sc1c(C)[nH]c2ccccc12 was read as ALR inh 99.0*, Yeast UUG start -15.8, NALP1 inh 11.9, MC4R antagonist 5.3, MC4R barr agon 0.4 and HDAC3 inh 3.4.
Screening Cc1[nH]c2ccccc2c1SCC(=O)O returned ALR inh 33.6, Yeast UUG start -22.2, NALP1 inh 1.3, MC4R antagonist 3.6, MC4R barr agon -2.5 and HDAC3 inh 2.2.
Screening CCN(CC)CCCn1c(=S)[nH]c2cc(Cl)ccc2c1=O returned ALR inh 64.1, Yeast UUG start -24.3, NALP1 inh 2.4, MC4R antagonist 18.7, MC4R barr agon -1.1 and HDAC3 inh 5.0.
`COCCNC(=O)C[C@@H]1C[C@@H]2c3cc(NS(C)(=O)=O)ccc3O[C@@H]2[C@H](CO)O1` gave Yeast UUG start 0.0.
Screening COc1ccc(SC[C@H](C)CN2CC[C@H](C(C)(C)C)CCC2=O)cc1 returned ALR inh 98.5*, Yeast UUG start 3.4, MC4R antagonist 1.8, MC4R barr agon 4.4 and HDAC3 inh inconclusive.
CC(=O)Nc1ccc(SCCN2CC[C@@H](C(C)(C)C)CCC2=O)cc1 was read as ALR inh 99.0*, Yeast UUG start -9.3, MC4R antagonist 6.4, MC4R barr agon 0.3 and HDAC3 inh 3.8.
C[C@@H](CSc1ccccc1)CN1CC[C@H](C(C)(C)C)CCC1=O was read as ALR inh -3.6, Yeast UUG start 19.8, NALP1 inh 23.9, MC4R antagonist -2.7, MC4R barr agon 0.1 and HDAC3 inh 9.6.
`C[C@@H](CSc1ccc(Br)cc1)CN1CC[C@H](O)CCC1=O` gave ALR inh -1.9, Yeast UUG start -0.1, MC4R antagonist 3.2, MC4R barr agon -1.5 and HDAC3 inh 3.0.

Arranged by length of the SMILES (rising): some entries from above.
For O=c1c2sc3ccccc3c2[nH]c(=S)n1CCN1CCOCC1 the results were ALR inh 95.9*, NALP1 inh -0.9, MC4R antagonist -4.3, MC4R barr agon -1.9 and HDAC3 inh 5.6.
Screening O=C(CCCn1c(=S)[nH]c2ccccc2c1=O)NC1CCCCC1 returned ALR inh 79.3*, Yeast UUG start -10.1, NALP1 inh 15.5, MC4R antagonist 7.2, MC4R barr agon -0.6 and HDAC3 inh 3.1.
`COCCNC(=O)C[C@@H]1C[C@@H]2c3cc(NS(C)(=O)=O)ccc3O[C@@H]2[C@H](CO)O1` gave Yeast UUG start 0.0.
Screening COc1ccccc1CNC(=O)C[C@@H]1C[C@@H]2c3cc(NC(=O)C4CCC4)ccc3O[C@@H]2[C@@H](CO)O1 returned Yeast UUG start 43.0.
